Data on 1 compound can be found in patent US12383566B2, “Inhibition of SLC transporter activity or expression to attenuate anthracycline-induced cardiotoxicity” (Northwestern University, priority 2021, dated 2025).

The assay deals with Mouse model of doxorubicin-induced cardiomyopathy. The assay is described as follows: Mouse model of doxorubicin-induced cardiomyopathy, echocardiographic evaluation. Particulars: Week 3; Mean. The assay is classed as in vivo, C57BL/6J mice. The source says: Procedures followed were in accordance with Stanford University's institutional guidelines. […] For the control group, we treated mice with corn oil in the same schedule as desipramine administration. We recorded an echocardiogram once a week (day 0, day 7, day 14, and day 21) and terminated the experiment at day 21.
For the control group, we treated mice with corn oil in the same schedule as desipramine administration. We recorded an echocardiogram once a week (day 0, day 7, day 14, and day 21) and terminated the experiment at day 21.
Echocardiographic evaluation. Mice were studied at baseline and weekly during the protocol under light anesthesia with isoflurane (induction 3%, maintenance 1.5%). 2D images in the parasternal short axis were obtained with a GE Vivid 7 ultrasound system (GE Healthcare) equipped with a 13 MHz transducer. Left ventricular end-systolic (LVESD) and end-diastolic (LVEDD) dimensions were measured and left ventricular fractional shortening (FS) was calculated.

Structures are written as SMILES.

Consider `COc1cccc2c1C(=O)c1c(O)c3c(c(O)c1C2=O)C[C@@](O)(C(=O)CO)C[C@@H]3O[C@H]1C[C@H](N)[C@H](O)[C@H](C)O1` [DOX, doxorubicin], for which the “IVSs (LV interventricular septum thickness at systole)” value is given as 0.97 mm.
